{
  "sequences": {"note": "Protein sequences, listed by entry. Tags and fused reporters are not part of them. Lines headed by an entry give the natural chain unless they say otherwise; changes in a name come on top.", "UniProt Q9NZ08": "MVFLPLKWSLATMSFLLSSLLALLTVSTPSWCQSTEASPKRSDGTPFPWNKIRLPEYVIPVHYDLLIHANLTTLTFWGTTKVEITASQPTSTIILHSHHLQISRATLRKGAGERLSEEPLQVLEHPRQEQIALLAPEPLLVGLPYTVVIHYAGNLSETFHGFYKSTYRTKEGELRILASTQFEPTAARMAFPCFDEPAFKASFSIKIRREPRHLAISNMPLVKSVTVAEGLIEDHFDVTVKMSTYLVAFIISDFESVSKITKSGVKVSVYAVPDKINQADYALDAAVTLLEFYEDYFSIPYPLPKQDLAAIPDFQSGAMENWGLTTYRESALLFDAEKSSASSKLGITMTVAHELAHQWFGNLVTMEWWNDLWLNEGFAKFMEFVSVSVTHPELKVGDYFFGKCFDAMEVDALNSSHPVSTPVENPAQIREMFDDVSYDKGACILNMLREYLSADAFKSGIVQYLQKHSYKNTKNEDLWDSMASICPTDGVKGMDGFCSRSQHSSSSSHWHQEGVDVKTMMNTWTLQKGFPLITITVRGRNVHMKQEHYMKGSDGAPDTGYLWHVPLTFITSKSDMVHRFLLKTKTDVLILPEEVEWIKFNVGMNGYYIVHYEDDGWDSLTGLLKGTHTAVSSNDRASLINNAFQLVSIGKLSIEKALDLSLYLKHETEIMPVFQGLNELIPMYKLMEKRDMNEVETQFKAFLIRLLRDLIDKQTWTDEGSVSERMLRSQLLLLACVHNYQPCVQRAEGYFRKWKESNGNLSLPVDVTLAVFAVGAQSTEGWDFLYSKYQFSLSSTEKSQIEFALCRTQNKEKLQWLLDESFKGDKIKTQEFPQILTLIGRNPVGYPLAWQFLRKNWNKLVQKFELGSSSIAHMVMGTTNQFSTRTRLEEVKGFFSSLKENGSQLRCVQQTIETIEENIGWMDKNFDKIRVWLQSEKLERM"},
  "source": "PubChem BioAssay AID743317",
  "about": "(Broad Institute, 2014)",
  "biological_target": "Endoplasmic reticulum aminopeptidase 1 (Homo sapiens) (UniProt Q9NZ08)",
  "assay": "ERAP1 aminopeptidase activity change, dose response, biochemical, fluorescence, cherry-pick (AID 743317)",
  "conditions": "ERAP1 enzyme, Leu-AMC fluorescence, 60 min; at 11 µM (top of the series)",
  "note": "This is a selection; strong and weak results do not stand in their true shares. Inconclusive results are not listed. Active and inactive are the calls of the source.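 How the source made its calls: active means fitted curve reaches 40% activation at or below the top valid dose, and every replicate test is called active; inconclusive means replicate tests disagree, some active and some inactive; inactive means all replicate tests inactive, including activity in the wrong direction.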",
  "data": [
    {"smiles": "O=c1ccc2ccc(O)cc2o1", "values": [
      {"measurement": "activity increase (activation)", "result": "inactive: -45.9%"}
    ]}
  ]
}
